# Assay outcomes from PubChem.
# miR-21 reporter = raises the signal of a miR-21 reporter | Potency, µM (doses to about 38.3 µM), for inactives: top-dose reporter change, positive = more light | HeLa miR-21 FLuc reporter, luciferase, 48 h | AID 2288 | 340,000 tested, under 10 active; active = well fitted rising curve with a large enough effect; inconclusive = small, poorly fitted or top-dose-only effect; inactive = no such curve, though single readings can be large or run the other way;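 also: % of control where 0% means no effect; miR-21 action dims this reporter so a rising signal means less miR-21 action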
#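 HeLa cells stably expressing CMV-driven firefly luciferase with a downstream miR-21 binding sequence, endogenously expressing miR-21, were treated with titrations (up to about 40uM final) for 48 hours at 37 degree Celsius. Luciferase luminescence was read after lysis.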
# TDP1 cell CPT = growth inhibition of DT40 Tdp1-/-;hTDP1 cells with camptothecin (screen for TDP1 inhibitors). chicken DT40 Tdp1-/-;hTDP1 cells + 20 nM CPT, ATP luminescence, 48 h. Potency, µM (titrated, usually from 46.2 µM), inactives show at the top dose activity change, negative = growth inhibition, actives largely listed as inhibitors. actives 12% (n = 420,000); further: potency means the concentration at half of the fitted maximal effect; on the % scale 0 is the no-effect control and ±100 the full control effect; nearly all actives have a fitted effect of over 55% in size
#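 Chicken DT40 Tdp1-/- cells stably complemented with human TDP1 were seeded at 400 cells/well in medium containing 20 nM camptothecin, exposed to pin-transferred compounds, and grown at 37 °C for at least 48 hr. Viability was read as ATP luminescence.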
# TDP1 inh = inhibitors of human tyrosyl-DNA phosphodiesterase TDP1 | Q9NUW8 | Potency, µM (top dose mostly 130 µM), for the others: at the top dose activity change, negative = inhibition, most hits filed as inhibitors | recombinant TDP1, AlphaScreen DNA substrate cleavage | actives 0.28% (n = 350,000); further: potency means the concentration at half of the fitted maximal effect; on the % scale 0 is the no-effect control and ±100 the full control effect; nearly all actives have a fitted effect of over 40% in size
#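 Steps: enzyme plus compound, 15 min RT; add biotin/phosphotyrosine-FITC oligonucleotide (15 nM final), react 5 min; add donor/acceptor beads (10 ug/ml final), 10 min; read AlphaScreen. Tdp1 at 1 nM final.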
# TDP1 cell noCPT = qHTS for Inhibitors of human tyrosyl-DNA phosphodiesterase 1 (TDP1): qHTS in cells in absence of CPT; DT40 Tdp1-/- hTDP1 cells, no CPT, ATP luminescence, 48 h; Potency, µM (titrated, usually from 46.2 µM), without a hit: at the top dose activity change, negative = growth inhibition, actives largely listed as inhibitors; actives 15% (n = 420,000); further: potency means the concentration at half of the fitted maximal effect; on the % scale 0 is the no-effect control and ±100 the full control effect; nearly all actives have a fitted effect of over 55% in size
#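 Seeded 400 DT40-hTDP1 cells/well (vehicle DMSO, no 20 nM CPT); pinned compounds; ≥48 hr at 37 °C; CellTiter-Glo luminescence as viability measure.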
# uPA surface inh = cell surface uPA generation inhibition | cell surface uPA generation assay, qHTS | Potency, µM (titrated, usually from 38.3 µM), without a hit: at the top dose activity change, negative = inhibition, hits mostly inhibitors | actives 0.31% (n = 330,000) | AID 540303; active means well fitted inhibition curve with a large enough effect; inconclusive means small, poorly fitted or top-dose-only effect; inactive means no such curve, though single readings can be large or run the other way; tested in mouse RAW 264.7 cells; further: potency means the concentration at half of the fitted maximal effect; on the % scale 0 is the no-effect control and ±100 the full control effect; nearly all actives have a fitted effect of over 55% in size
# Active calls of the source: *; u = inconclusive; x = no result given; [ ] = remark or other dose. Only some compounds are listed: those with a hit (about 16% of all), similar ones and a draw of the others. Unless noted, the call rests on the fitted dose curve; in most records, active means well fitted curve in the direction sought with a large enough effect; inconclusive means small, poorly fitted or top-dose-only effect, or another doubt; inactive means no such curve, though single readings can be large; an effect the other way counts as inactive or inconclusive.
# Results follow in this order: miR-21 reporter	TDP1 cell CPT	TDP1 inh	TDP1 cell noCPT	uPA surface inh
1. COc1ccc(/C(C)=N/NC(=O)c2ccncc2)cc1[N+](=O)[O-]
  0.0%	1.6%	x	-3.9%	3.7%
2. C/C(=N\NC(=O)COc1ccccc1[N+](=O)[O-])c1cccc(NC(=O)c2ccncc2)c1
  1.9%	u	-15.6%	8.2µM*	-7.9%
3. C/C(=N\NC(=O)c1cccc(N/N=C(\C)c2ccccc2)c1)c1ccccc1
  -66.4%	-0.8%	-2.3%	u	-6.0%
4. C/C(=N\NC(=O)c1cccc(N/N=C(\C)c2ccncc2)c1)c1ccncc1
  -15.4%	20.6µM*	5.9%	u	-13.5%
5. C/C(=N\NC(=O)c1cc(O)ccc1O)c1cccc(NC(=O)c2cccc(Cl)c2)c1
  -36.1%	-17.7%	-3.4%	-13.0%	-25.7%
6. C/C(=N/NC(=O)c1ccc(Br)o1)c1cccc(NC(=O)c2ccc(C)o2)c1
  -43.8%	16.4µM*	7.7%	20.6µM*	-1.8%
7. Cc1cc(C)c2c(CC(=O)NCCc3ccccc3)coc2c1
  -4.4%	-12.9%	3.6%	-8.4%	1.2%
8. C/C(=N\NC(=O)c1ccncc1)c1cccc(NC(=O)c2ccc(C(C)(C)C)cc2)c1
  26.1%	16.4µM*	-0.1%	16.4µM*	-16.7%
9. C/C(=N/NC(=O)c1ccncc1)c1ccc(NC(=O)c2ccccc2)cc1
  -15.8%	-22.6%	x	-22.7%	-18.0%
10. c1ccc(N2CCN(c3nc4cc5c(cc4s3)OCO5)CC2)cc1
  -39.0%	-9.6%	1.1%	-25.8%	1.4%
11. CN1CCN(c2ccc3sc(-n4ccc5ccccc54)nc3c2)CC1
  x	16.4µM*	x	13µM*	x
12. C=CC[n+]1ccc2ccccc2c1C
  -0.8%	-10.9%	-1.3%	-13.1%	-2.7%
13. C[n+]1ccccc1/C=C/c1ccc2ncccc2c1
  -16.8%	4.6%	x	0.9%	-12.2%
14. C[n+]1ccnc2ccccc21
  x	1.41µM*	x	3.98µM*	x
15. C[n+]1ccnc2cc(Cl)ccc21
  x	0.631µM*	x	0.708µM*	x
16. C=CC[n+]1ccnc2ccccc21
  x	5.01µM*	x	u	x
17. CCN(CC(=O)Nc1ccc(OC)cc1)C(=O)c1ccc2[nH]c3c(c2c1)CC(C)CC3 (centres undefined)
  x	u	3.0%[56.1 µM]	u	0.0%
18. Cc1ccc(Cn2c(C)c(C(=O)NCc3ccc4c(c3)OCO4)sc2=O)cc1
  x	u	x	-29.1%	x
19. Cc1c(C(=O)NCc2ccccc2C(F)(F)F)sc(=O)n1Cc1ccc(F)cc1
  x	20.6µM*	x	u	x
20. CSc1ccc(Cn2c(C)c(C(=O)NCc3cccs3)sc2=O)cc1
  x	u	x	23.1µM*	x
21. C=Cc1ccc(Cn2c(C)c(C(=O)NCc3ccc4c(c3)OCCO4)sc2=O)cc1
  x	u	x	10.3µM*	x
22. CSc1ccc(Cn2c(C)c(C(=O)NCc3ccc4c(c3)OCO4)sc2=O)cc1
  x	u	x	14.6µM*	x
23. COc1ccccc1CN1CCC(n2nccc2NC(=O)CCc2ccccc2)CC1
  -1.6%	-28.4%	3.8%	9.0%	5.5%
24. Cn1c(=O)c(Nc2ccc(Cl)cc2)c2c3c(cccc31)C(=O)c1ccccc1-2
  -2.7%	u	0.0%	18.4µM*	2.2%
25. Nc1nc2c(ccc3ccccc32)s1
  x	10.6%	x	2.1%	19.4%
26. O=C(NCCN1CCN(S(=O)(=O)c2ccc([N+](=O)[O-])cc2)CC1)C(=O)Nc1ccccc1
  -3.2%	-14.1%	2.5%	2.0%	2.1%
27. OC(c1ccccc1)(c1nc(/C=C/c2ccccc2)cs1)C(F)(F)F (centres undefined)
  x	u	x	-83.9%	x
28. OC(c1ccccc1)(c1nc(-c2ccc3ccccc3c2)cs1)C(F)(F)F (centres undefined)
  x	20.6µM*	x	u	x
29. OC(c1ccccc1)(c1nc(-c2ccccc2)cs1)C(F)(F)F (centres undefined)
  x	18.4µM*	x	20.6µM*	x
30. O=C(O)c1ccc(-c2nc(-c3cccc(C(F)(F)F)c3)cs2)cc1
  -7.9%	u	8.9%	-7.3%	9.2%

# (next part)
# Codes – A = miR-21 reporter; B = TDP1 cell CPT; C = TDP1 inh; D = TDP1 cell noCPT; E = uPA surface inh
(31) CC(=O)Nc1ccc(SCC(=O)N(C)C2CCS(=O)(=O)C2)cc1 (centres undefined)
  A: -6.4%	B: -14.3%	C: 5.1%	D: -5.1%	E: 2.4%

(32) O=C(c1ccccc1)c1c(-c2ccccc2)[nH]n(-c2ccccc2)c(=O)c1=O
  A: x	B: 4.4%	C: x	D: -21.8%	E: 1.7%

(33) O=C(NCc1ccc(F)cc1)c1cc(C2CCCCN2C(=O)CCc2ccccc2)on1 (centres undefined)
  A: x	B: -18.6%	C: x	D: -27.2%	E: x

(34) COc1ccc(C(=O)N2CCCCC2c2cc(C(=O)NCc3ccccc3)no2)cc1 (centres undefined)
  A: x	B: u	C: x	D: -20.6%	E: x

(35) COc1ccc(NC(=O)c2cc(C3CCCCN3C(=O)CCCc3ccccc3)on2)c(C)c1 (centres undefined)
  A: x	B: 0.731µM*	C: x	D: -90.4%	E: x

(36) O=C(Nc1ccc(F)c(Cl)c1)c1cc(C2CCCCN2C(=O)CCCc2ccccc2)on1 (centres undefined)
  A: x	B: u	C: x	D: 18.4µM*	E: x

(37) O=C(Nc1ccccc1Cl)c1cc(C2CCCCN2C(=O)CCCc2ccccc2)on1 (centres undefined)
  A: x	B: 29.1µM*	C: x	D: 23.1µM*	E: x

(38) O=C(NCc1cccnc1)c1cc(C2CCCCN2C(=O)CCCc2ccccc2)on1 (centres undefined)
  A: x	B: 29.1µM*	C: x	D: u	E: x

(39) CCCNC(=O)c1cc(C2CCCCN2C(=O)CCCc2ccccc2)on1 (centres undefined)
  A: x	B: -23.5%	C: x	D: -19.8%	E: x

(40) Cc1ccc(OCC(=O)Nc2ccc3nc(SCC(=O)Nc4ccc(C)cc4C)sc3c2)cc1
  A: -4.4%	B: u	C: 4.7%	D: u	E: x

(41) O=S(=O)(Nc1ccccc1N1CCCCC1)c1ccccc1
  A: -0.1%	B: u	C: -6.4%	D: u	E: -1.0%

# Among those listed so far, these have a Cl atom.
# Codes – A = miR-21 reporter; B = TDP1 cell CPT; C = TDP1 inh; D = TDP1 cell noCPT; E = uPA surface inh
(5) C/C(=N\NC(=O)c1cc(O)ccc1O)c1cccc(NC(=O)c2cccc(Cl)c2)c1
  A: -36.1%	B: -17.7%	C: -3.4%	D: -13.0%	E: -25.7%

(15) C[n+]1ccnc2cc(Cl)ccc21
  A: x	B: 0.631µM*	C: x	D: 0.708µM*	E: x

(24) Cn1c(=O)c(Nc2ccc(Cl)cc2)c2c3c(cccc31)C(=O)c1ccccc1-2
  A: -2.7%	B: u	C: 0.0%	D: 18.4µM*	E: 2.2%

(36) O=C(Nc1ccc(F)c(Cl)c1)c1cc(C2CCCCN2C(=O)CCCc2ccccc2)on1 (centres undefined)
  A: x	B: u	C: x	D: 18.4µM*	E: x

(37) O=C(Nc1ccccc1Cl)c1cc(C2CCCCN2C(=O)CCCc2ccccc2)on1 (centres undefined)
  A: x	B: 29.1µM*	C: x	D: 23.1µM*	E: x
